## Antibody variant affinities, Ab-14 light chain, assay B

Source: Li et al. 2023 (doi:10.1038/s41467-023-39022-2), MIT Lincoln Laboratory and A-Alpha Bio; data file from the FLAb repository.

Target peptide (SARS-CoV-2 spike, HR2 region): PDVDLGDISGINAS

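The starting antibody came from a phage panning campaign against this peptide. This is the validation round: designs drawn from the data on random variants, tested in the same kind of assay. Their group label is 14L_GP_Gen (GP: Gaussian process model; Gen: genetic algorithm; a sequence that several methods proposed may carry one label only). In AlphaSeq, yeast of one mating type display the scFv and yeast of the other type display the target. The frequency of each diploid, read from paired DNA barcodes, reflects how well the two displayed proteins bind. A regression on co-assayed BCL2-family reference pairs converts the normalised counts of each replicate to an apparent Kd. Each pool was mated in six replicate cultures.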

Parent scFv Ab-14: VH joined to VL by the linker GGGGSGGGGSGGGGS. Changes lie in the light chain CDRs alone.
VH: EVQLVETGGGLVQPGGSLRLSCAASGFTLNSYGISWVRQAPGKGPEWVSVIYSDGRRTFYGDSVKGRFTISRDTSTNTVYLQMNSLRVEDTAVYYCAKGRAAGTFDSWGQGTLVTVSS
VL: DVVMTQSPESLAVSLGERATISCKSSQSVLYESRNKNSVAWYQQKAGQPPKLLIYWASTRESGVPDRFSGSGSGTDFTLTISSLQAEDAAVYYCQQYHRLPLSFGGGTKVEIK

Substitutions are numbered in sequence along the VL above, starting at 1 (not Kabat). Numbers give log10(Kd / nM), so 0 is 1 nM and 3 is 1 µM. Smaller is tighter. A pair that was not seen in that replicate is written "nd"; this usually means weak binding, but a binder can also be missed. The parent sequence was in this pool as ten entries: three were never detected, three once, and four in most replicates, with averages from 0.34 to 2.37.

Variant S25L V29K W56N S62V showed 0.03, 0.29, 0.21, -0.18, -0.09, 0.14 (controls 0 of 18).
Variant S25L S26P V29T W56D T59Q showed -0.31, -0.12, -0.33, -0.41, -0.34, -0.17 (controls 0 of 18).
Variant S25V V29H N37W W56N showed 0.83, 0.76, 0.51, 0.83, 0.81, 0.96 (controls 1 of 18).
Variant S25L S26P V29Q W56Q showed 0.04, -0.19, -0.29, -0.01, -0.02, 0.09 (controls 0 of 18).
Variant S25L S26E V29S W56N showed -0.20, -0.35, -0.34, -0.27, -0.38, -0.04 (controls 0 of 18).
Variant S25L S33E W56G T59Q showed -0.20, -0.18, -0.21, -0.59, -0.15, -0.33 (controls 0 of 18).
Variant S25L V29M W56E S62V showed nd, nd, nd, nd, nd, nd (controls 0 of 18).
Variant S25L V29N N35M W56N E61M showed 0.00, -0.07, -0.16, -0.30, -0.06, 0.00 (controls 2 of 18).
Variant S25L K36W W56N E61C showed 0.08, -0.01, -0.18, 0.06, 0.00, 0.27 (controls 1 of 18).
Variant S25V S26Q V29H W56N E61L showed 0.30, 0.09, -0.13, 0.15, -0.02, 0.11 (controls 1 of 18).
Variant S25V S26A V29E W56E showed 0.89, 1.35, 0.72, 1.02, 0.99, 0.76 (controls 0 of 18).
Variant S25V V29N W56D T59Q showed 0.19, -0.06, -0.14, -0.14, -0.06, 0.01 (controls 1 of 18).
Variant S25L V29G W56G showed -0.34, -0.36, -0.64, -0.57, -0.55, -0.28 (controls 0 of 18).
Variant S25L Q27G V29Q N35M W56N showed 0.65, 0.90, 0.63, 0.56, 0.79, 0.98 (controls 1 of 18).
Variant S25L V29D N35A W56N showed -0.03, -0.03, -0.30, -0.37, -0.12, -0.08 (controls 0 of 18).
Variant S25L K36S W56N S62D showed -0.34, -0.35, -0.64, -0.40, -0.42, -0.34 (controls 1 of 18).
Variant S25L S26Q S38A W56N showed -0.35, -0.60, -0.64, -0.96, -0.27, -0.73 (controls 2 of 18).
Variant S25L V29G S38N W56S showed -0.25, -0.52, -0.52, -0.78, -0.77, -0.25 (controls 0 of 18).
Variant S25F V29E W56N T59Y showed 0.00, -0.01, 0.00, -0.13, 0.27, 0.11 (controls 2 of 18).
Variant S25L L30Q N35Q W56N showed 0.15, -0.03, -0.17, -0.05, -0.08, 0.29 (controls 1 of 18).
Variant S25L S26E S38N W56N T59Q showed -0.37, -0.35, -0.45, -0.55, -0.54, -0.39 (controls 1 of 18).
Variant S25L Q27F W56G showed 0.24, 0.17, 0.10, 0.18, 0.16, 0.04 (controls 0 of 18).
Variant S25L L30E E32Q W56N showed 1.25, 0.68, 0.21, 0.21, 0.23, 0.79 (controls 1 of 18).
Variant S25L S33Q S38N W56E showed -0.19, -0.34, -0.59, -0.61, -0.48, -0.39 (controls 0 of 18).
Variant S25V S26Q V29Q W56N E61C showed 0.06, -0.11, -0.10, -0.29, 0.22, -0.02 (controls 1 of 18).
Variant S25L S26A L30P W56N showed 0.68, 0.89, 0.37, 0.77, 0.28, 0.56 (controls 1 of 18).
Variant Q27G V29E W56E showed 0.31, -0.15, -0.37, -0.28, -0.22, -0.15 (controls 1 of 18).
Variant S25L S26D S38A W56E showed -0.07, -0.33, -0.22, -0.10, -0.35, -0.15 (controls 1 of 18).
Variant S25L L30Q S33D W56N showed 0.12, 0.31, -0.02, -0.28, 0.36, 0.40 (controls 0 of 18).
Variant S25L N37M W56N showed -0.06, -0.21, -0.26, -0.25, -0.08, -0.01 (controls 2 of 18).
Variant S25V S28L W56N showed 0.31, 0.10, -0.04, -0.04, -0.31, 0.08 (controls 1 of 18).
Variant S25L W56G T59Q E61L showed 0.09, -0.01, -0.32, -0.45, -0.18, -0.13 (controls 0 of 18).
Variant S25L S26Y W56N E61S showed 0.10, -0.12, -0.11, -0.30, -0.15, -0.04 (controls 3 of 18).
Variant S25V S26Q W56D T59Q showed -0.39, -0.45, -0.57, -0.52, -0.53, -0.42 (controls 1 of 18).
Variant S25L S26Q V29N W56N S62V showed -0.13, -0.10, -0.28, -0.56, -0.26, 0.15 (controls 0 of 18).
Variant S25L W56E T59E showed -0.24, -0.27, -0.31, -0.33, -0.27, -0.16 (controls 4 of 18).
Variant S25F V29Y W56D showed -0.43, -0.61, -0.37, -0.68, -0.75, -0.47 (controls 0 of 18).
Variant S25L S28M V29E W56N showed -0.04, -0.16, -0.19, -0.36, -0.27, -0.08 (controls 2 of 18).
Variant S25L S26Q V29Q W56Q showed 0.13, 0.07, -0.09, -0.11, 0.10, 0.53 (controls 2 of 18).
Variant S25L V29C W56E T59Q showed 1.58, 0.70, 0.74, 0.91, 2.53, 1.43 (controls 0 of 18).
Variant S25V W56Q S103Q showed -0.16, -0.24, -0.33, -0.38, -0.48, -0.31 (controls 1 of 18).
Variant S25L L30D W56N S62D showed -0.16, -0.33, -0.35, -0.30, -0.19, -0.14 (controls 1 of 18).
Variant S25L S33M W56D showed -0.22, -0.54, -0.48, -0.81, -0.71, -0.34 (controls 0 of 18).
Variant S25L V29E W56E T59Q S62V showed 0.24, 0.36, 0.09, 0.25, 0.08, 0.25 (controls 1 of 18).
Variant S25L K36P W56N T59Y showed 0.10, -0.03, -0.20, -0.22, 0.00, -0.01 (controls 3 of 18).
Variant S25L V29D W56H showed -0.03, 0.30, 0.15, -0.04, 0.31, 0.35 (controls 0 of 18).
Variant S25L V29M L30G W56N T59Q showed -0.27, 0.35, -0.08, -0.32, -0.32, -0.44 (controls 0 of 18).
Variant S25L V29F K36S W56N showed 1.57, 1.43, 1.20, 1.21, nd, 2.27 (controls 0 of 18).
Variant S25M L30P W56N showed 0.14, 0.32, -0.04, 0.01, 0.20, 0.32 (controls 0 of 18).

Extract of 4 entries:

{"changes": "S25L S26Q V29N W56N S62V", "log10 Kd (nM) by replicate": "-0.13, -0.10, -0.28, -0.56, -0.26, 0.15", "control signals": "0/18"}
{"changes": "S25L S26P V29Q W56Q", "log10 Kd (nM) by replicate": "0.04, -0.19, -0.29, -0.01, -0.02, 0.09", "control signals": "0/18"}
{"changes": "S25V S26Q W56D T59Q", "log10 Kd (nM) by replicate": "-0.39, -0.45, -0.57, -0.52, -0.53, -0.42", "control signals": "1/18"}
{"changes": "S25L S26E S38N W56N T59Q", "log10 Kd (nM) by replicate": "-0.37, -0.35, -0.45, -0.55, -0.54, -0.39", "control signals": "1/18"}

The range of this assay differs from that of the first round, and the authors advise against merging the two. In the paper, a design with two or fewer of six values counts as a poor binder. As a blank, each scFv also met three strains without target: over all light chain designs, 4% of these pairings were detected, typically at 2.64 and seldom below 1.59. For each scFv, signals with the empty controls are counted beside the result.